2 compounds from the NIST ThermoML archive (doi:10.1016/j.jct.2017.11.017) can be followed below.

Numbers after ± are expanded uncertainties.

This series can be described thus: activity coefficient (dimensionless); of the first substance listed, at infinite dilution; xn = mol fraction of the nth substance listed. The settings on record: 101.33 kPa, Liquid, Chromatography, x1 = 0.

On to `CCCCOCCCC` [dibutyl ether] + C[N+]1(CCCO)CCOCC1.N#C[N-]C#N, for which the activity coefficient turned out to be 637 ± 44 (308.15 K); 574 ± 40 (318.15 K); 514 ± 35 (328.15 K); 465 ± 32 (338.15 K); 426 ± 29 (348.15 K); 389 ± 27 (358.15 K). Moreover, the activity coefficient (368.15 K) is 359 ± 25.

As for `CCCCOCCCC` [dibutyl ether] + C[n+]1ccn(CCCO)c1.N#CN=C=[N-], the activity coefficient runs as follows: (318.15 K) 228 ± 16; (328.15 K) 218 ± 15; (338.15 K) 208 ± 14; (348.15 K) 200 ± 14; (358.15 K) 193 ± 13; (368.15 K) 185 ± 13.
